In paper PMC3794980, “Identification of Conserved and HLA Promiscuous DENV3 T-Cell Epitopes” (PLoS Neglected Tropical Diseases, 2013):
Where two headings read alike, the source gives them in different places.

Chains of the proteins cited; added tags and fusions are not shown. Residues count along the entry.
UniProt Q30154, 30-266: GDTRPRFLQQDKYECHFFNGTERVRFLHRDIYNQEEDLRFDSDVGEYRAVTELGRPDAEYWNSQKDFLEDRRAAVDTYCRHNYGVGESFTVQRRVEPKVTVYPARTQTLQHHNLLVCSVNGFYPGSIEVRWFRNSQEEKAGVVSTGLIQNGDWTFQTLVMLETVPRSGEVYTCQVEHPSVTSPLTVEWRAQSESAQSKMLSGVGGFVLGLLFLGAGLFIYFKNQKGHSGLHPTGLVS

Tests used:
Assay in all cases: biochemical
Format in all cases: binding
[1] = target: DRB1*1302 (Homo sapiens, UniProt P01903+P01911, A100E/A169T/K41T/L162R/M171V/P40S/Q125H/Q178H/Q39Y/Q99D/R42S/S66N/T262R/V115G/W38E/Y61H)
[2] = target: DRB1*0802 (Homo sapiens, UniProt P01903+P01911, A100R/A103L/A169T/F76Y/H45Y/I96F/K41T/L162R/M171V/P40S/Q125H/Q178H/Q39Y/Q99D/R218S/R42G/S66Y/V115G/W38E)
[3] = target: DRB1*0301 (Homo sapiens, UniProt P01903+P01911, A100K/A102G/A103R/A169T/F55Y/I96L/K41T/L162R/M171V/P40S/Q125H/Q178H/Q39Y/R42S/S66N/T106N/T262R/W38E/Y61H)
[4] = target: DRB1*0404 (Homo sapiens, UniProt P01903+P01911, A100R/A169T/F76Y/I96L/K127E/L162R/M171V/N62H/P40V/Q125Y/R42H/S133A/S149N/S66Y/V209L/W38E)
[5] = target: DRB4*0101 (Homo sapiens, UniProt P01903+P13762, G164S)
[6] = target: DRB1*1501 (Homo sapiens, UniProt P01903+P01911)
[7] = target: DRB1*0701 (Homo sapiens, UniProt P01903+P01911, A100R/A102G/A103Q/D57E/D86V/E43K/F76Y/K127E/L162R/M171V/P40G/Q125H/Q99D/R33Q/R42Y/R54Q/S133A/S66F/T210M/V115G/Y107V/Y59L/Y89S)
[8] = target: DRB1*0901 (Homo sapiens, UniProt P01903+P01911, A100R/A103E/D57H/D86V/F55Y/F60I/F76Y/I96F/K127E/L162R/M171V/P40D/Q125H/Q99R/R33Q/R42F/S133A/S66N/T210M/V115G/W38K/Y107V/Y59G/Y89S)
[9] = target: DRB5*0101 (Homo sapiens, UniProt P01903+Q30154)
[10] = target: DRB1*0101 (Homo sapiens, UniProt P01903+P01911, A100R/D57E/F55L/F60I/F76Y/I96L/L162R/M171V/P40L/Q125E/R42F/V115G/Y59C)
[11] = target: DRB1*1101 (Homo sapiens, UniProt P01903+P01911, A100R/A169T/A87E/I96F/K41T/L162R/M171V/P40S/Q125H/Q178H/Q39Y/Q99D/R42S/S66Y/T262R/V115G/W38E)
[12] = target: DRB1*0405 (Homo sapiens, UniProt P01903+P01911, A100R/A169T/D86S/F76Y/I96L/K127E/L162R/M171V/N62H/P40V/Q125Y/R42H/S133A/S149N/S66Y/V115G/V209L/W38E)
[13] = target: DRB1*0401 (Homo sapiens, UniProt P01903+P01911, A100K/A169T/F76Y/I96L/K127E/L162R/M171V/N62H/P40V/Q125Y/R42H/S133A/S149N/S66Y/V115G/V209L/W38E)
[14] = read-out: Binding Affinity (nM) DRB5*0101
[15] = competitive inhibition of radiolabeled standard peptide, '-' distinct from ND, read-out: Binding Affinity (nM) DRB1*1302
[16] = competitive inhibition of radiolabeled standard peptide, '-' distinct from ND, read-out: Binding Affinity (nM) DRB1*0901

CC[C@H](C)[C@H](NC(=O)CNC(=O)[C@@H](NC(=O)[C@H](C)NC(=O)[C@@H](NC(=O)[C@H](CS)NC(=O)[C@@H](N)CO)[C@@H](C)CC)[C@@H](C)CC)C(=O)N[C@H](C(=O)N[C@H](C(=O)N[C@@H](CC(C)C)C(=O)N[C@@H](Cc1ccc(O)cc1)C(=O)N[C@@H](CC(C)C)C(=O)NCC(=O)N[C@@H](C)C(=O)N[C@H](C(=O)N[C@H](C(=O)N[C@@H](CCC(N)=O)C(=O)N[C@@H](C)C(=O)O)C(C)C)C(C)C)[C@@H](C)O)[C@@H](C)CC [Envelope 476-493]
IC50 [1]: 1320 nM | IC50 [2]: 1660 nM | IC50 [3]: 4.55 µM | IC50 [4]: 8200 nM | IC50 [5]: 6.29 µM | IC50 [6]: 2.27 µM | IC50 [7]: 3.06 µM | IC50 [8]: 1730 nM | IC50 [9, 14]: > 20000 nM

CC[C@H](C)[C@H](NC(=O)[C@@H](NC(=O)[C@H](CCSC)NC(=O)[C@H](CC(=O)O)NC(=O)[C@H](CO)NC(=O)[C@H](CCC(=O)O)NC(=O)[C@H](CC(C)C)NC(=O)[C@@H](NC(=O)CNC(=O)[C@H](CC(N)=O)NC(=O)[C@H](CO)NC(=O)[C@H](Cc1c[nH]c2ccccc12)NC(=O)[C@H](CC(C)C)NC(=O)[C@@H](NC(=O)[C@@H](N)Cc1c[nH]cn1)[C@@H](C)O)C(C)C)[C@@H](C)CC)C(=O)O [NS1 229-243]
IC50 [1, 15]: 1000 nM | IC50 [2]: 3790 nM | IC50 [3]: 0.17 µM | IC50 ([4]; read-out: Binding Affinity (nM) DRB1*0404): > 20000 nM | IC50 [10]: 10700 nM | IC50 ([11]; read-out: Binding Affinity (nM) DRB1*1101): > 20000 nM | IC50 [12]: 7.66 µM | IC50 [6]: 8.96 µM | IC50 [13]: 178 nM | IC50 [7]: 7.63 µM | IC50 [8, 16]: 15400 nM | IC50 [9, 14]: > 20000 nM

CC(C)C[C@H](NC(=O)[C@H](CCC(=O)O)NC(=O)[C@H](CC(C)C)NC(=O)[C@H](CCCCN)NC(=O)CNC(=O)[C@H](CC(C)C)NC(=O)[C@H](Cc1c[nH]cn1)NC(=O)[C@H](Cc1c[nH]c2ccccc12)NC(=O)[C@@H]1CCCN1C(=O)CNC(=O)[C@H](C)NC(=O)[C@@H](NC(=O)[C@H](CCC(N)=O)NC(=O)[C@@H](NC(=O)[C@@H](N)Cc1c[nH]cn1)[C@@H](C)O)[C@@H](C)O)C(=O)O [NS1 261-275]
IC50 [11]: 7450 nM | IC50 [12]: 18.7 µM | IC50 [6]: 5.92 µM | IC50 ([13]; read-out: Binding Affinity (nM) DRB1*0401): > 20000 nM | IC50 [7]: 7.94 µM | IC50 [8]: 5830 nM | IC50 [9]: 14500 nM

CC[C@H](C)[C@H](NC(=O)[C@@H](NC(=O)[C@H](CC(C)C)NC(=O)[C@H](CC(N)=O)NC(=O)[C@H](CCCNC(=N)N)NC(=O)[C@H](CCCCN)NC(=O)[C@H](CCCCN)NC(=O)[C@H](Cc1ccccc1)NC(=O)[C@H](CCSC)NC(=O)[C@H](CCC(=O)O)NC(=O)[C@@H](N)CCC(=O)O)[C@@H](C)O)C(=O)N[C@@H](CCSC)C(=O)N[C@@H](CC(=O)O)C(=O)N[C@@H](CC(C)C)C(=O)N[C@@H](Cc1c[nH]cn1)C(=O)O [NS3 181-195]
IC50 [1, 15]: 9320 nM | IC50 ([2]; read-out: Binding Affinity (nM) DRB1*0802): > 20000 nM | IC50 [3]: 15.2 µM | IC50 [4]: 7810 nM | IC50 ([10]; read-out: Binding Affinity (nM) DRB1*0101): > 20000 nM | IC50 [11]: 336 nM | IC50 [12]: 7.49 µM | IC50 [6]: 0.891 µM | IC50 [13]: 12600 nM | IC50 [7]: 6.26 µM | IC50 [8, 16]: 10100 nM | IC50 [9, 14]: > 20000 nM
